Assay results: article PMC11403621 (Journal of Medicinal Chemistry, 2024)

Experiments:
in vivo [1] = conditions: female, CD-1, mouse, po, 50 mg/kg
in vivo [2] = conditions: female, NOD-SCID gamma (NSG), mouse, po, 200 mg/kg

Compound `Cc1c(C(=O)NS(=O)(=O)N(C)C)cc(-c2ccc(Cl)c(Oc3ccccn3)c2)c2cc[nH]c12` has a bioavailability at 24 h (in vivo [1]) of 99.8%, a concentration at 8 h (in vivo [2]; plasma) of 5.4 µM and a concentration at 8 h (in vivo [2]; tumor) of 70 µM. It also gave a concentration at 12 h (in vivo [2]; tumor) of 54 µM.
